Source: article PMC7547737

By UniProt entry, the sequences of proteins in these tests, tags left out. Where a name states a change or a piece, a line headed by the entry shows the natural chain unless it says otherwise.
UniProt P31749, whole entry P313A/P318A: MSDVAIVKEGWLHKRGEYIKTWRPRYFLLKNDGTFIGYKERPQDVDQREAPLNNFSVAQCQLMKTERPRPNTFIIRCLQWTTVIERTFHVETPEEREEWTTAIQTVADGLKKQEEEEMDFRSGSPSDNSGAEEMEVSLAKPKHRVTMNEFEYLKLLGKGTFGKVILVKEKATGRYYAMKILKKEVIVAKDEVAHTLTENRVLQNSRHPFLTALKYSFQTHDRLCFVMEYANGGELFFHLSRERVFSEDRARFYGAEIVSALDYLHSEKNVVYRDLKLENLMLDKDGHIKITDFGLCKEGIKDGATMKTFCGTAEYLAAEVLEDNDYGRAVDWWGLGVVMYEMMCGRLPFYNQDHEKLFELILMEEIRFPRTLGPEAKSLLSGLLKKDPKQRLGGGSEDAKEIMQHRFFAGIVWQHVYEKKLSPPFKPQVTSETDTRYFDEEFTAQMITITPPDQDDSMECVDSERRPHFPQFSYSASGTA
UniProt P31749, whole entry P318A: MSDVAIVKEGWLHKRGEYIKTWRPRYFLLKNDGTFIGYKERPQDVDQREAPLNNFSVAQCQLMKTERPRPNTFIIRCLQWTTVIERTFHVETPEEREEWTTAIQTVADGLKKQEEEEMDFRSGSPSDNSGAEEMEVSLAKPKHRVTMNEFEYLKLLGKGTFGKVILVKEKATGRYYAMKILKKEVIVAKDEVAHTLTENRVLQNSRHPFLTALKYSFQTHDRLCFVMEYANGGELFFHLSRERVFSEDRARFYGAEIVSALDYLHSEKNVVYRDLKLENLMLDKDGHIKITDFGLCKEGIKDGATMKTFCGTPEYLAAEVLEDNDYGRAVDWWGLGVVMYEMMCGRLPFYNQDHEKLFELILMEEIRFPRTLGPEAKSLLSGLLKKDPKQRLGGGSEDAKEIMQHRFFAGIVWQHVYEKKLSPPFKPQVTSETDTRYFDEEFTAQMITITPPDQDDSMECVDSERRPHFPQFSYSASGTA
UniProt P31749, whole entry T308A: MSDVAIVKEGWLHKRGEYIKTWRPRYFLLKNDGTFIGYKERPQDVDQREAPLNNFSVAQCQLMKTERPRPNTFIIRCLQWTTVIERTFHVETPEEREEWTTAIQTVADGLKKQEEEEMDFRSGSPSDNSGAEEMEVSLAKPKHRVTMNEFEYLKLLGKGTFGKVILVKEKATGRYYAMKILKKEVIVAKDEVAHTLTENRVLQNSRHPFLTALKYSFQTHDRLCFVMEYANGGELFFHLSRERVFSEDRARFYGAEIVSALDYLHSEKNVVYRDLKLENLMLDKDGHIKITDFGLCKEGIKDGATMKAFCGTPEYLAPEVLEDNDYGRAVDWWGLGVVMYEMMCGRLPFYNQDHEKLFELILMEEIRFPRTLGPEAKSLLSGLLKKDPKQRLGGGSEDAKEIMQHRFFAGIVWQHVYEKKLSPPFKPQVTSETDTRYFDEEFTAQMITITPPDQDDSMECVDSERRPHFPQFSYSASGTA
UniProt P31749, whole entry T308D: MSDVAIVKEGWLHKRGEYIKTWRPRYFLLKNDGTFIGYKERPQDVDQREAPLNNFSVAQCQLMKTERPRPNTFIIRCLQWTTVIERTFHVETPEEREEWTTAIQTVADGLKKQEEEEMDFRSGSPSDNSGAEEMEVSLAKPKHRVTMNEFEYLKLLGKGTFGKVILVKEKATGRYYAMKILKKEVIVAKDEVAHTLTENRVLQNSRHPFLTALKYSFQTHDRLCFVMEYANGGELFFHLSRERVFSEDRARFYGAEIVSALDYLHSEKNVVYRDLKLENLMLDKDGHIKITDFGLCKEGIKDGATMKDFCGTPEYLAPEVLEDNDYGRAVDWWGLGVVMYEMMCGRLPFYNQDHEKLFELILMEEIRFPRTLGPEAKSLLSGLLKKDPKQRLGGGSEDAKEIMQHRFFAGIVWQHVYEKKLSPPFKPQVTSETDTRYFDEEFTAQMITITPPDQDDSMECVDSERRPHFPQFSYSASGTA
UniProt P62937, whole entry: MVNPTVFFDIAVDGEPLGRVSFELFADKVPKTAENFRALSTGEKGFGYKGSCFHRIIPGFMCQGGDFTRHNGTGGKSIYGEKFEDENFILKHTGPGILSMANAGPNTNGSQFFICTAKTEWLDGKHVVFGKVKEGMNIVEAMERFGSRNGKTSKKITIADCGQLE

Assays:
FLAG-AKT^P313A/P318A = FLAG-AKT^P313A/P318A (UniProt P31749); assay: co-IP; SK-Br3 cells transfected with FLAG-tagged AKT constructs, starved with U0126, treated with TZ 20 min, cross-linked with DSP; anti-FLAG magnetic beads, 3 h at 4 °C; Western blot, amounts normalised on precipitated protein and input
FLAG-AKT^P318A = FLAG-AKT^P318A (UniProt P31749); assay: as above
FLAG-AKT^T308A = FLAG-AKT^T308A (UniProt P31749); assay: as above
FLAG-AKT^T308D = FLAG-AKT^T308D (UniProt P31749); assay: as above
[1] = target: phospho-Thr308 AKT (human (endogenous in SK-Br3)) (UniProt P31749); assay: co-IP; SK-Br3 cells untreated, or treated with TZ or TZ/U0126 for 20 min, cross-linked with DSP; lysate precipitated with anti-phospho-Thr308 AKT antibody on protein G dynabeads; Western blot, amounts normalised on the precipitated protein and on untreated cells

How did the percent reduction of the interaction against wt AKT (FLAG-AKT^P313A/P318A) turn out when “peptidyl-prolyl cis–trans isomerase A (Cyclophilin A) (from UniProt P62937 1-165) (enzyme)” was run?
The percent reduction of the interaction against wt AKT was 60%.

And the percent reduction of the interaction against wt AKT (FLAG-AKT^P318A)?
Its percent reduction of the interaction against wt AKT is 60%.

What about the percent co-precipitated against wt AKT (FLAG-AKT^T308A) of the same substance?
Its percent co-precipitated against wt AKT is 50%.

And the percent co-precipitated against wt AKT (FLAG-AKT^T308D)?
Its percent co-precipitated against wt AKT is 50%.

And the fold co-precipitated, TZ-treated against untreated cells [1]?
Its fold co-precipitated, TZ-treated against untreated cells is 2 fold.
